Test results as given in patent US9187486B2 (AMGEN INC., priority 2011, dated 2015).
Like-named read-outs stand apart in the source and are kept apart here.

By UniProt entry, the sequences of proteins in these tests, tags left out. Where a name states a change or a piece, a line headed by the entry shows the natural chain unless it says otherwise.
UniProt P11309, whole entry: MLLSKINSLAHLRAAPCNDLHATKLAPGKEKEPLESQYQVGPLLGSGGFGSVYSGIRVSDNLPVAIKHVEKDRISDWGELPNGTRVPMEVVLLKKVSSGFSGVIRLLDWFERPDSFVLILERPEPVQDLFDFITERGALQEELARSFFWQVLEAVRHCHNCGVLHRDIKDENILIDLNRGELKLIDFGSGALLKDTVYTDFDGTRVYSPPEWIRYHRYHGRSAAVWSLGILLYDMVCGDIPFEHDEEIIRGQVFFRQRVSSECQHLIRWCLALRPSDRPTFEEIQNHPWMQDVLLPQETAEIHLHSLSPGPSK
UniProt Q9P1W9: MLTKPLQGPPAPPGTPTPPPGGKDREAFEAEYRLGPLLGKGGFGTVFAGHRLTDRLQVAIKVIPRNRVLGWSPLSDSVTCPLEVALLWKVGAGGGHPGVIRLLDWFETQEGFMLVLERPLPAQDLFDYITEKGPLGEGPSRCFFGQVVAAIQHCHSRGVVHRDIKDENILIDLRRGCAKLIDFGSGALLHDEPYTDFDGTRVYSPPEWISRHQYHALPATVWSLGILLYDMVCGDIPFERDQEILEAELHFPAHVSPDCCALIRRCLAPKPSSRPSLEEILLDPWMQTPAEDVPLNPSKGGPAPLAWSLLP

Legend:
Pim-1 = Pim-1 (Homo sapiens (Human), UniProt P11309); assay: Pim enzyme assay (HTRF, phosphorylation of biotinylated-BAD (S112) peptide), Pim-1; assay type: biochemical; conditions: read-out: Pim-1 IC50 IP
Description: (§1) Full-length human cDNAs encoding Pim-1 (MGC ID 3913552) or Pim-2 (IMAGE ID 5092935) were purchased from Invitrogen, Carlsbad, Calif. These cDNAs were used as templates in PCR reactions to produce full-length DNA clones of the PIMs. Oligonucleotide PCR primers for Pim-1 were 5′-[…]-3′ and 5′-[…]-3′. Oligonucleotide PCR primers for Pim-2 were 5′-[…]-3′ and 5′-[…]-3′. PCR products were digested with BclI and EcoRI for Pim-1 and BamHI and EcoRI for Pim-2 and ligated into a modified baculovirus transfer vector (pFastBac 1) cleaved with BamHI and EcoRI. For bacterial expression, the same cleaved PCR products encoding Pim-1 or Pim-2 were ligated into a modified E. coli expression vector pET28(a) cleaved with BamHI and EcoRI. Amino-terminal hexahistidine tags followed by a thrombin cleavage site were previously added to the vectors using standard methods of molecular biology. Recombinant baculoviruses expressing Pim-1 or Pim-2 were made using standard methods (Fastbac manual, Invitrogen, Carlsbad, Calif.). Infection of Sf9 cells was done at an m.o.i. of greater than 5 for 24-48 h. Cells were harvested by centrifugation and frozen at −80 C. For E. coli expression, cells carrying pET28-His6-Th-Pim-1 or pET28-His6-Th-Pim-2 were picked from a single colony and grown o/n in LB media. The o/n culture was used to inoculate a 2 liter flask with 500 mL media. This was grown o/n and used to inoculate 15-20 liters of Terrific Broth in a New Brunswick Scientific fermentor. The E. coli were grown at 37° C. to and OD600>1.6. The temperature was dropped to 18° C. and o/n expression was induced with 0.5 mM IPTG. Cells were harvested by centrifugation and frozen at −80° C.
(§2) The frozen cell pellets were thawed by stirring in chilled lysis buffer (0.05 M HEPES, pH 8.0, 0.25 M NaCl, 0.01 M 2-mercaptoethanol, 10% (w/v) glycerol, 0.5% (v/v) protease inhibitor cocktail (Sigma P-8340) at a ratio of 1 L/200 g cells until homogeneous. The thawed suspension was applied to a microfluidizer at 10,000 PSI to disrupt the cells and the whole lysates were clarified by centrifugation at 50,000×g for 90 min, 4° C. Imidazole was added to the clarified lysate to a final concentration of 2.5 mM and the lysate was mixed with 10 mL of Talon resin (Clontech) and the slurry rocked gently overnight at 4° C. The slurry was centrifuged at 1,000×g for 5 min, the supernatant decanted, and the resin suspended in 40 mL of lysis wash buffer (lysis buffer at 0.75 M NaCl). This step was repeated 3× and the resin was transferred to a 2.5 cm glass column. Ten column volumes of wash buffer (0.05 M HEPES, pH 8.0, 0.1 M NaCl, 0.01 M 2-mercaptoethanol, 10% (w/v) glycerol) were applied to the resin followed by 10 column volumes of elution buffer (0.05 M HEPES, pH 8.0, 0.25 M NaCl, 0.01 M 2-mercaptoethanol, 10% (w/v) glycerol, 0.1 M imidazole). Fractions were analyzed by SDS-PAGE and those containing the protein of interest were pooled and concentrated. The concentrated protein was applied to an Amersham Superdex 75 (XK 26/60) column equilibrated in 0.025 M Tris-HCl, pH 7.5, 0.1 M NaCl, 0.01 M 2-mercaptoethanol, 10% (w/v) glycerol. […] Fractions containing the monomeric protein of interest were pooled, concentrated to ˜2 mg/mL, and stored at −80° C.
(§3) The phosphorylation of biotinylated-BAD (S112) peptide by full length recombinant Pim-1, Pim-2, or Pim-3 protein was detected with streptavidin:Allophycocyanin (APC) conjugate and a europium (Eu) labeled antibody directed against phosphorylated-BAD (S112). Excitation of Eu by a high energy laser light (337 nm) leads to a transfer of energy to the APC molecule, and results in an emission at 665 nm. The fluorescence is directly proportional to the amount of phosphorylated BAD peptide present in the reaction.

[1] = test system: KMS-12-BM myeloma cell line; assay: Pim cell assay: phospho-BAD (S112) and total BAD in KMS-12-BM cells; assay type: cell-based; conditions: read-out: KMS-12-BM IC50 IP
Protocol: The KMS-12-BM myeloma cell line was used to determine the in vitro cellular inhibition of Pim kinases. Disruption of Pim signaling by Pim inhibitors was determined by measuring the levels of phospho-BAD (S112) and total BAD. […] The cells were then incubated overnight at 37° C., 5% CO2. […] In addition to the 10-point dosing curve of the test compound, DMSO alone was run as a control. This dilution in DMSO was then diluted again into cell growth medium. Aliquots (11.1 uL) of the compound diluted in growth medium were then transferred to the appropriate wells of the 96-well plates containing cells to yield a final DMSO concentration of 0.3%. The cell plates were then incubated with compound for 1 hour and 50 minutes at 37° C., 5% CO2. After the 1 hour and 50 min incubation, the cell plates were spun at 1000 RPM for 10 minutes and the compound-containing medium was removed. […] The cell plates containing lysis buffer were then immediately stored at −70° C. These prepared lysates were then assayed for phospho-(S112) and total-BAD according to the manufacturer's protocol (Meso Scale Diagnostics, Cat # K15103D-3). The plates were read on the MSD Sector Imager 6000, and results were calculated according to the assay protocol: ((% Phosphoprotein=((2×Phospho signal)/(Phospho signal+Total signal))×100)).

Pim-2 = Pim-2 (Homo sapiens (Human), UniProt Q9P1W9); assay: Pim enzyme assay (HTRF, phosphorylation of biotinylated-BAD (S112) peptide), Pim-2; assay type: biochemical; conditions: read-out: Pim-2 IC50 IP
Description: as §1, §2, §3

IC50 (Pim-1; full length recombinant Pim-1, biotinylated-BAD (S112) peptide, HTRF, 96-well)	IC50 ([1]; KMS-12-BM cells, phospho-BAD (S112)/total BAD, 1 hour and 50 minutes incubation, tris(2,2,2-trifluoroacetate))	IC50 (Pim-2; full length recombinant Pim-2, biotinylated-BAD (S112) peptide, HTRF, 96-well)	Compound	IC50 ([1]; Homo sapiens, KMS-12-BM)	IC50 (Pim-1)	IC50 (Pim-2)
0.1 nM	258 nM	1.3 nM	C[C@H]1CC[C@@H](N)CN1c1ccncc1Nc1ncc2ccc(-c3ncccc3F)nn12 (single isomer, unassigned) [Example 95, N-(4-((cis)-5-amino-2-methylpiperidin-1-yl)pyridin-3-yl)-2-(3-fluoropyridin-2-yl)imidazo[1,5-b]pyridazin-7-amine tris(2,2,2-trifluoroacetate)]			
			C[C@H]1[C@@H](N)CCCN1c1ccncc1Nc1ncc2ccc(-c3ncccc3F)nn12 [Example 75, N-(4-((2S,3S)-3-amino-2-methyl-1-piperidinyl)-3-pyridinyl)-2-(3-fluoro-2-pyridinyl)imidazo[1,5-t]pyridazin-7-amine]	4630 nM		
			C[C@@H]1[C@@H](N)CCCN1c1ccncc1Nc1ncc2ccc(-c3ncccc3F)nn12 [Example 76, N-(4-((2R,3S)-3-amino-2-methyl-1-piperidinyl)-3-pyridinyl)-2-(3-fluoro-2-pyridinyl)imidazo[1,5-b]pyridazin-7-amine]	364 nM	0.3 nM	1.8 nM
